Measured values reported in US20110028717A1, “AZAINDOLE DERIVATIVE HAVING PGD2 RECEPTOR ANTAGONISTIC ACTIVITY” (priority 2005, published 2011).

Amino acid sequences for entries named in this document (tags omitted).
UniProt Q13258, whole entry: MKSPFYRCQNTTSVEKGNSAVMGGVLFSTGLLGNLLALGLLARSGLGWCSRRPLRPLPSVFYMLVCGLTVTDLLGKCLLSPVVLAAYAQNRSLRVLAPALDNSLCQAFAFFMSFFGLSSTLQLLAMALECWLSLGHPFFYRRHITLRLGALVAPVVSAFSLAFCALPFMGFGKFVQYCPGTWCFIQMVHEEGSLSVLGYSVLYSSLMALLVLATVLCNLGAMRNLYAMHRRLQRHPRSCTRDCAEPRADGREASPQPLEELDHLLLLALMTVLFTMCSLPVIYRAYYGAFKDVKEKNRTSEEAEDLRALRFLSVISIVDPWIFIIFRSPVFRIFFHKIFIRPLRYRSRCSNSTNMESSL

Columns and labels:
DP receptor [1] = molecular target: T1, DP receptor (Homo sapiens, UniProt Q13258); assay: cAMP assay with washed platelets (PGD2-stimulated cAMP, HTRF); details: read-out: IC50 (50% DP-inhibitory concentration in the cAMP assay), 100 nM PGD2, cAMP by HTRF
Protocol: 30 ml of peripheral blood was collected from a healthy volunteer using a syringe containing one ninth amount of 3.8% sodium citrate for diagnosis. After being centrifuged at 180 g for 10 minutes at room temperature, a supernatant was collected and used as Platelet Rich Plasma (PRP). The resulting PRP was washed with wash buffer and centrifuged three times (Washed Platelet: WP) and platelets were counted by a microcell counter. WP was added to a plate in amount of 1.5×10^8/assay and the plate was treated with 3-isobutyl-1-methylxanthin (IBMX; 0.5 mM) for 5 minutes. A reaction was initiated by adding 100 nM of PGD2 5 min after an addition of a test compound. The reaction was terminated with an addition of 1N hydrochloric acid after 2 minutes and the cells were destructed using 12% triton X-100. An amount of cAMP in the supernatant was assayed by Homogeneous […] (HTRF)

DP receptor [2] = molecular target: T1, DP receptor; assay: Receptor binding assay, [3H]-PGD2, platelet membrane; details: read-out: Ki (receptor binding assay); [3H]-PGD2, human platelet membrane
Protocol: A prepared WP was homogenated and a membrane fraction was collected with high-speed centrifugation. A compound of the present invention or a reference compound A (No. IC-73 in WO 2003/097598) was added to the plate and [^3H]-PGD2 was also added. A platelet membrane, a protein concentration is 2 mg/mL, was added and mixed in the plate, and placed on ice for 2 hours. The reaction solution was transferred to a low protein-adsorptive filter and washed with a wash solution eight times using a cell harvester. After the final washing, water was removed sufficiently, and micoscinti was added. DP inhibitory activity was investigated by measuring [^3H] by using Micro Beta.

Brown Norway (BN) Rats = assay: OVA asthma model of rat (hyperresponsive airway, infiltration of inflammatory cells, mucus secretion); details: 10 mg/kg p.o. once a day for three days
Protocol: Brown Norway (BN) Rats were sensitized by i.p. administration of 0.1 mg/mL of ovalbumin (OVA) and 1 mg of aluminum hydroxide gel. A solution of 1% OVA was aerosolized by ultrasonic nebulizer (NE-U 17) and the rats were subjected to inhalation exposure of the aerosol for 30 minutes in an exposing chamber 12, 19, 26 and 33 days after the sensitization. One hour before the 4th exposure of the antigen, compounds of the present invention were administered in a dose of 10 mg/kg p.o. once a day for three days consecutively. In a control group, 0.5% of methyl cellulose was administered in place of the compound of the present invention.
Under pentobarbital anesthesia (80 mg/kg, i.p.), acetylcholine (3.9, 7.8, 15.6, 31.3, 62.5, 125, 250 and 500 μg/kg) was injected to jugular vein of the rats successively from a lower dose at intervals of 5 minutes three days after the fourth exposure to the antigen, and immediate contractile reaction of airways (an increase of insufflation pressure) was measured by a modified method of Konnzett & Rössler. Inhibition rate of increased hyperresponsive airway against the control group was calculated based on area under curve (AUC) obtained from concentration-response curve of acetylcholine.
After the measurement of increased hyperresponsive airway was completed, bronchoalveoli of the rats were washed with 5 mL of saline three times. Total cell number in the washings was counted by a hemacytometer under light microscope, and inhibition rates of infiltration of inflammatory cells against the control group were calculated. Further, muchin in the airway lavage fluid was measured by ELIZA method using jacalin, a muchin-binding lectin, and the inhibition rates of mucus-secretion against the control group were calculated.

For `CC(C)Oc1ccc(S(=O)(=O)N2CCC(c3cn(CC(=O)O)c4nc(Cl)ccc34)CC2)cc1`, the IC50 (DP receptor [1]) was 1.6 nM, the Ki (DP receptor [2]) was 0.91 nM and the “inhibition rate (%) mucus-secretion” value (Brown Norway (BN) Rats; mucin in airway lavage fluid vs control group) was 55%. For the same compound, the “inhibition rate (%) infiltration of inflammatory cells” value (Brown Norway (BN) Rats; total cell number in bronchoalveolar washings vs control group) was 48% and the “inhibition rate (%) increased hyperresponsive airway” value (Brown Norway (BN) Rats; vs control group, AUC of acetylcholine response) was 64%.
